Assay results taken from patent publication US10682371B2, “Small molecule conjugates specifically activated in tumor microenvironment for targeting and use thereof” (priority 2014, dated 2020).

The chains behind the UniProt entries cited, without tags or fusion partners. Residues count along the entry.
UniProt P08253, 110-660: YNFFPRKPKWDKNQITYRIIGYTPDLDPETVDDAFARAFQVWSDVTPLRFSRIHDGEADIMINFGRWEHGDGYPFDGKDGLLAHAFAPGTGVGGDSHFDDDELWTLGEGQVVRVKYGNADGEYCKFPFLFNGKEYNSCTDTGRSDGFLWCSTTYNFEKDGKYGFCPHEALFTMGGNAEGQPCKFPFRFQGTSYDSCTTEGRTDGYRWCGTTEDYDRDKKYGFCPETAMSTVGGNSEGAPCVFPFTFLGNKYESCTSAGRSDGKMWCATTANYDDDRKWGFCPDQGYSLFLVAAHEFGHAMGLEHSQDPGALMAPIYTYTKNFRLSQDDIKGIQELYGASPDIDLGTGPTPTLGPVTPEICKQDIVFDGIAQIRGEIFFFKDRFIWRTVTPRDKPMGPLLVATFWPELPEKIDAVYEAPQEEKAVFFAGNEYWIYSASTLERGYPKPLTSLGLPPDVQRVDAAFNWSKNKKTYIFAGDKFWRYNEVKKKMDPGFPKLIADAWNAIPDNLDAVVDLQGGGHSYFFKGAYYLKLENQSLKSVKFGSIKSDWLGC

Key:
asparagine endopeptidase = target: T1, asparagine endopeptidase (Homo sapiens, UniProt Q99538); settings: S1-S6, 1 mg/ml; 10 μg/ml acidified asparagine endopeptidase; 37°
T1 sequence (Q99538 26-323 limits assumed): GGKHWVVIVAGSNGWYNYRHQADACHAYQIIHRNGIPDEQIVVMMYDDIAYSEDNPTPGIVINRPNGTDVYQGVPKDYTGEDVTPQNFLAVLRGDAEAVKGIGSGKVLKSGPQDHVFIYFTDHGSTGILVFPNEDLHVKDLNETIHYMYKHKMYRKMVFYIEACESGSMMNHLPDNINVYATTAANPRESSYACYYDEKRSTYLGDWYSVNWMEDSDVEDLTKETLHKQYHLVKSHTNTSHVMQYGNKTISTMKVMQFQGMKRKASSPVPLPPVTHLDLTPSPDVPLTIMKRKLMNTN
Experimental: Reduction of reactant and increase of product were detected by HPLC, thereby comparing the activation efficiency of these compounds.
(§1) When R1 is 2-(2-Methoxyethoxy)Acetyl, and R3 is Ala, activation study and efficacy study were carried out by using compounds having different cleavable linker. The study methods are identical to those in Examples 10, 11 and 12. The in vitro activation efficiency was tested by asparagine endopeptidase and the tumor inhibition rate was tested by using human breast cancer MDA-MB231 model.

[1] = tested on: Human breast cancer MDA-MB231 cells; assay: animal or person; type: in vivo, nude mice; settings: for Inhibitory rate on tumor (%) Day 10 / Inhibitory rate on tumor (%) Day 24: MDA-MB231, nude mice, IV 13.2 μmol/kg once weekly for four weeks; for inhibition in vivo at 13.2 µmol/kg: Mus musculus, MDA-MB-231, iv, 912 h, read-out: Inhibitory rate on tumor (Day38)
Experimental: 1) Human breast cancer MDA-MB231 cells were purchased from American type culture collection (ATCC) and identified according the specification provided by ATCC. Cells were cultivated in […] (DMEM culture medium) containing 10% fetal bovine serum at 37° C. and 5% CO2. The cells were passaged for every three days and cells within the 15th passage were used.
2) Production of tumor. 5×10^6 MDA-MB231 cells were subcutaneously injected to the back of the nude mice. Mice were randomly grouped after the tumor reached at least 100 mm^3. Then treatment began and the day on which the treatment began was day 1.
3) Course of treatment. […] The drugs were administered once weekly for four weeks.
as §1, with “model. […]” for “model.”

D121 lung tumor cells = type: in vivo; settings: D121 immunized C57 mice, 13.2 μmol/kg weekly, PDL1 antibody 5 μg/kg where combined
Experimental: 1) D121 lung tumor cells were purchased from ATCC. Cells were cultivated in DMEM culture solution containing 10% fetal bovine serum at 37° C. and 5% CO2. The cells were passaged for every three days and cells within the 15th passage were used.
(§2) 2) Tumor immunization. 5×10^5 D121 lung cancer cells (purchased from ATCC) which were killed by irradiation were intraperitoneally injected to mice. The mice were injected for 3 times, once every two weeks. After immunization, mice were injected with tumor cells and the drugs were administered weekly for 4 weeks.
3) Production of tumor. At day 32, 10^6 live lung tumor cells were subcutaneously injected to the back of the C57 mice immunized by tumor. Treatment began when the tumor grew to 0.3-0.4 cm.
as §2, with “4 weeks. In table 16 below the immune group was immuned with D121 lung tumor cells and the group without dead D121 lung tumor cells was injected with physiological saline as controls.” for “4 weeks.”
3) Production of tumor. After immunization (4 weeks later), 10^6 live lung tumor cells were subcutaneously injected to the back of the C57 mice immunized by tumor. Treatment began when the tumor grew to 0.3-0.4 cm. Tumor size (mm^3) were noted and tumor inhibition rates were calculated.
as §2, with “4 weeks. In the table below the immune group was immuned with D121 lung tumor cells and the group without dead D121 lung tumor cells was injected with physiological saline as controls.” for “4 weeks.”
3) Production of tumor. […]

metalloprotease MMP2 = metalloprotease MMP2 (Homo sapiens, UniProt P08253)
[2] = tested on: Human colon cancer HT-29 tumor tissue homogenate; type: biochemical; settings: Human colon cancer HT-29 tumor tissue homogenate (30 μg/ml); 1 mg/ml compound
Experimental: (§3) At 37 °C, sample compounds were added into 100 μg acidized tumor tissue homogenates (pH6.0) in a concentration of 1 mg/ml.
(§4) […], sample compounds were added into 100 μg acidized tumor tissue homogenates (pH6.0) in a concentration of 1 mg/ml.
(§5) At 37 °C, sample compounds were added into 100 μg acidized tumor tissue homogenates in a concentration of 1 mg/ml.
(§6) In the experiments, at 37 °C, compounds were added into proteases in 100 μg acidized tumor tissue homogenates in a concentration of 1 mg/ml. […] Meanwhile certain compounds produced in the screening were compared and their activation efficiency in same tissue was analyzed.
(§7) At 37° C., compounds were added into proteases in 100 μg acidized tumor tissue homogenates in a concentration of 1 mg/ml.

tumor tissue homogenates = type: biochemical
Experimental: as §3, §4, §5, §6, §7

Structure (SMILES)	inhibition in vivo at 13.2 µmol/kg [1]	further results
CCCCCOC(=O)Nc1nc(=O)n([C@@H]2O[C@H](C)[C@@H](OC(=O)OCc3ccc(NC(=O)[C@H](CC(N)=O)NC(=O)[C@H](C)NC(=O)[C@H](C)NC(=O)CCCCCCC(=O)NO)cc3)[C@H]2O)cc1F [Compound S3, 4-N—(N—(N—(N-(8-(N-hydroxylamino)-1,8-octandioic acid-1-monoacyl)-L-alanyl)-L-alanyl)-L-asparaginyl)-amino benzyl alcohol-capecitabine-carbonic acid diester]		Activation Efficiencies (%) (asparagine endopeptidase): 84.8%; Inhibitory rate on tumor (%) Day 10 [1]: 72%; Inhibitory rate on tumor (%) Day 24 [1]: 100%; Inhibitory rate on tumor Day 18 (D121 lung tumor cells): 68.64; Targeting and binding of R1 to MMP2 (metalloprotease MMP2): could target and bind to metalloprotease MMP2
COc1cccc2c1C(=O)c1c(O)c3c(c(O)c1C2=O)C[C@@](O)(C(C)=O)C[C@@H]3O[C@H]1C[C@H](NC(=O)OCc2ccc(NC(=O)[C@H](CC(N)=O)NC(=O)[C@H](C)NC(=O)[C@H](C)NC(=O)CCCCCN3C(=O)C=CC3=O)cc2)[C@H](O)[C@H](C)O1 [Compound S5, 4-N—(N—(N—(N-(6-maleimidocaproyl)-L-alanyl)-L-alanyl)-L-asparaginyl)-amino benzyl alcohol-daunorubicin-carbamate]		Activation Efficiencies (%) (asparagine endopeptidase): 83.3%; Activation Efficiencies (%) [2]: 78.4%; Activation efficiency by tumor tissue, in words (tumor tissue homogenates): very high activation efficiency; Inhibitory rate on tumor (%) Day 10 [1]: 79%; Inhibitory rate on tumor (%) Day 24 [1]: 95.5%; Inhibitory rate on tumor Day 18 (D121 lung tumor cells): 72.03; Targeting and binding of R1 to cathepsin (cathepsin): could target and bind to cathepsin
CC[C@@]1(O)C(=O)OCc2c1cc1n(c2=O)Cc2cc3cc(OC(=O)OCc4ccc(NC(=O)[C@H](CC(N)=O)NC(=O)[C@@H](NC(=O)[C@@H](NC(=O)COCCOC)[C@@H](C)O)[C@@H](C)O)cc4)ccc3nc2-1 [Compound S29]	57.4%	
CC[C@@]1(O)C(=O)OCc2c1cc1n(c2=O)Cc2cc3cc(OC(=O)OCc4ccc(NC(=O)[C@H](CC(N)=O)NC(=O)[C@@H](NC(=O)[C@@H](NC(=O)COCCOC)[C@@H](C)O)C(C)C)cc4)ccc3nc2-1 [Compound S30]	47.4%	
CC[C@@]1(O)C(=O)OCc2c1cc1n(c2=O)Cc2cc3cc(OC(=O)OCc4ccc(NC(=O)[C@H](CC(N)=O)NC(=O)[C@H](CC(N)=O)NC(=O)[C@@H](NC(=O)COCCOC)[C@@H](C)O)cc4)ccc3nc2-1 [Compound S31]	46.5%	
CC[C@@]1(O)C(=O)OCc2c1cc1n(c2=O)Cc2cc3cc(OC(=O)OCc4ccc(NC(=O)[C@H](CC(N)=O)NC(=O)[C@H](C)NC(=O)[C@@H](NC(=O)COCCOC)C(C)C)cc4)ccc3nc2-1 [Compound S32]	56.5%	
CC[C@@]1(O)C(=O)OCc2c1cc1n(c2=O)Cc2cc3cc(OC(=O)OCc4ccc(NC(=O)[C@H](CC(N)=O)NC(=O)[C@@H](NC(=O)[C@@H](NC(=O)COCCOC)C(C)C)[C@@H](C)O)cc4)ccc3nc2-1 [Compound S33]	50.6%	
CC[C@@]1(O)C(=O)OCc2c1cc1n(c2=O)Cc2cc3cc(OC(=O)OCc4ccc(NC(=O)[C@H](CC(N)=O)NC(=O)[C@@H](NC(=O)[C@@H](NC(=O)COCCOC)C(C)C)C(C)C)cc4)ccc3nc2-1 [Compound S34]	46.7%	
CC[C@@]1(O)C(=O)OCc2c1cc1n(c2=O)Cc2cc3cc(OC(=O)OCc4ccc(NC(=O)[C@H](CC(N)=O)NC(=O)[C@H](CC(N)=O)NC(=O)[C@@H](NC(=O)COCCOC)C(C)C)cc4)ccc3nc2-1 [Compound S35]	58.6%	
CC[C@H](C)[C@H](NC(=O)COCCOC)C(=O)N[C@@H](C)C(=O)N[C@@H](CC(N)=O)C(=O)Nc1ccc(COC(=O)Oc2ccc3nc4c(cc3c2)Cn2c-4cc3c(c2=O)COC(=O)[C@]3(O)CC)cc1 [Compound S36]	52.5%	
CC[C@H](C)[C@H](NC(=O)COCCOC)C(=O)N[C@H](C(=O)N[C@@H](CC(N)=O)C(=O)Nc1ccc(COC(=O)Oc2ccc3nc4c(cc3c2)Cn2c-4cc3c(c2=O)COC(=O)[C@]3(O)CC)cc1)[C@@H](C)O [Compound S37]	46.7%	
CC[C@H](C)[C@H](NC(=O)COCCOC)C(=O)N[C@H](C(=O)N[C@@H](CC(N)=O)C(=O)Nc1ccc(COC(=O)Oc2ccc3nc4c(cc3c2)Cn2c-4cc3c(c2=O)COC(=O)[C@]3(O)CC)cc1)C(C)C [Compound S38]	46.3%	
CC[C@H](C)[C@H](NC(=O)COCCOC)C(=O)N[C@@H](CC(N)=O)C(=O)N[C@@H](CC(N)=O)C(=O)Nc1ccc(COC(=O)Oc2ccc3nc4c(cc3c2)Cn2c-4cc3c(c2=O)COC(=O)[C@]3(O)CC)cc1 [Compound S39]	48.4%	
CC[C@@]1(O)C(=O)OCc2c1cc1n(c2=O)Cc2cc3cc(OC(=O)OCc4ccc(NC(=O)[C@H](CC(N)=O)NC(=O)[C@H](C)NC(=O)[C@H](C)NC(=O)COCCOC)cc4)ccc3nc2-1 [Compound S40]	80.5%	
CC[C@@]1(O)C(=O)OCc2c1cc1n(c2=O)Cc2cc3cc(OC(=O)OCc4ccc(NC(=O)[C@H](CC(N)=O)NC(=O)[C@@H](NC(=O)[C@H](C)NC(=O)COCCOC)[C@@H](C)O)cc4)ccc3nc2-1 [Compound S41]	64.6%	
CC[C@@]1(O)C(=O)OCc2c1cc1n(c2=O)Cc2cc3cc(OC(=O)OCc4ccc(NC(=O)[C@H](CC(N)=O)NC(=O)[C@@H](NC(=O)[C@H](C)NC(=O)COCCOC)C(C)C)cc4)ccc3nc2-1 [Compound S42]	66.6%	
CC[C@@]1(O)C(=O)OCc2c1cc1n(c2=O)Cc2cc3cc(OC(=O)OCc4ccc(NC(=O)[C@H](CC(N)=O)NC(=O)[C@H](CC(N)=O)NC(=O)[C@H](C)NC(=O)COCCOC)cc4)ccc3nc2-1 [Compound S43]	60.5%	
